Test results taken from patent publication US11679084B2, “Method and compositions for rendering opioids safe” (dated 2023).

Experiments:
[1] = cited from earlier work
[2] = Oxidation by sodium perborate with TAED in water; conditions: 4:1 molar ratio of sodium perborate and TAED

For CCC(=O)N(c1ccccc1)C1CCN(CCc2ccccc2)CC1, the solubility ([1]; neutral pH) is listed as 2 grams per liter, the solubility ([1]; pH=5.7) is listed as 65 g/L (≈ 193 mM) and the “consumption on treatment with oxidizer” value [2] is listed as “rapidly consumed”.

Values after ≈ are worked out from the molar mass of the structure shown. Where two headings read alike, the source gives them in different places. Only a part of the results on these compounds is given; other tests are left out.
